Data reported in patent publication US7629315B2, “Compositions for blocking the inhibitory effect of human CRP on human leptin” (University of Pittsburgh of the Commonwealth System of …, priority 2005, dated 2009).

Test system: leptin-induced tyrosine phosphorylation of STAT3
Experiment: Leptin-induced STAT3 tyrosine phosphorylation in HEK293 cells expressing OB-Rb (western blot), human leptin
Assay type: cell-based
Conditions: human leptin 2 nM, protein pre-incubated with leptin
Procedure: 2. Signaling Studies: A HEK293 cell line stably expressing the human long-form receptor, OB-Rb (M. Friedman-Einat et al., 2003, Regul. Pept. 111, 77) was serum starved for 2-h before addition of leptin and CRP. Leptin (SEQ ID NO:4), in the presence or absence of C-reactive proteins, was pre-incubated in μ-MEM for 30 minutes at 37° C. before applied to the cells. After a 30-incubation with leptin (SEQ ID NO:4), the cells were harvested in a previously described protein lysis buffer. A. Z. Zhao et al., 1997, Proc. Natl. Acad. Sci. U.S.A. 94, 322. The protein extract was subjected to a western blot assay with an anti-phospho-STAT3 specific antibody (Cell Signaling, Beverly, Mass.). For studies involving the primary hypothalamic neurons, the rat hypothalamus was surgically isolated right after euthanasia, and immediately placed in the DMEM for incubation with leptin in the presence or absence of CRP.
To determine if the interaction between CRP and leptin influences cellular actions of leptin, we assessed the ability of leptin to stimulate tyrosine phosphorylation of STAT3 and PI3-kinase activity in the presence of CRP in vitro.

Substance: human serum albumin: specificity control protein [reference compound]
- effect on leptin-induced tyrosine phosphorylation of STAT3: did not affect the stimulation of STAT3 by leptin
- effect on leptin-induced tyrosine phosphorylation of STAT3 (listed as Human serum albumin): no appreciable effect on leptin-induced STAT3 phosphorylation
- effect on leptin-induced tyrosine phosphorylation of STAT3 (listed as human albumin): did not significantly alter leptin-stimulated phosphorylation of STAT3
